A short description of the series: in vivo. The note with it: mouse, mice, oral, observed one week, read-out: average lethal dose (LD50), Oral Route. As to the method: 1. determination of the acute toxicity:
The acute toxicity has been determined on batches of ten mice weighing from 18 to 22 gm. The products were administered in suspension in gum arabic solution in water, at increasing doses, either by oral route or by intraperitoneal route.
The animals are kept under observation for one week. The average lethal dose (LD50) is determined graphically by the method of Dragstedt and Lang.
The acute toxicity was determined on batches of ten mice weighing from 18 to 22 gm. Ethyl 2-n-propyl-thiazole-4-carboxylate was administered in suspension in gum arabic solution in water, at increasing doses by the intraperitoneal route. The animals were kept under observation for one week. The average lethal dose (LD50) was determined graphically by the method of Dragstedt and Lang.

Here are results for one compound from patent US4045567A, “2-Alkyl-5-thiazole-carboxylic acid derivatives in hypolipemiant compositions” (Roussel Uclaf, priority 1969, dated 1977).

Regarding `Cc1ncc(C(=O)O)s1` [2-methyl-5-thiazolecarboxylic acid], the LD50 (commonly the dose expected to kill half of the subjects tested) at 168 h was above 2000 mg/kg.
